The values below come from PubChem BioAssay AID540263 (National Center for Advancing Translational Sciences (NCATS), 2011).

Chains of the proteins cited; added tags and fusions are not shown.
UniProt Q14974, whole entry: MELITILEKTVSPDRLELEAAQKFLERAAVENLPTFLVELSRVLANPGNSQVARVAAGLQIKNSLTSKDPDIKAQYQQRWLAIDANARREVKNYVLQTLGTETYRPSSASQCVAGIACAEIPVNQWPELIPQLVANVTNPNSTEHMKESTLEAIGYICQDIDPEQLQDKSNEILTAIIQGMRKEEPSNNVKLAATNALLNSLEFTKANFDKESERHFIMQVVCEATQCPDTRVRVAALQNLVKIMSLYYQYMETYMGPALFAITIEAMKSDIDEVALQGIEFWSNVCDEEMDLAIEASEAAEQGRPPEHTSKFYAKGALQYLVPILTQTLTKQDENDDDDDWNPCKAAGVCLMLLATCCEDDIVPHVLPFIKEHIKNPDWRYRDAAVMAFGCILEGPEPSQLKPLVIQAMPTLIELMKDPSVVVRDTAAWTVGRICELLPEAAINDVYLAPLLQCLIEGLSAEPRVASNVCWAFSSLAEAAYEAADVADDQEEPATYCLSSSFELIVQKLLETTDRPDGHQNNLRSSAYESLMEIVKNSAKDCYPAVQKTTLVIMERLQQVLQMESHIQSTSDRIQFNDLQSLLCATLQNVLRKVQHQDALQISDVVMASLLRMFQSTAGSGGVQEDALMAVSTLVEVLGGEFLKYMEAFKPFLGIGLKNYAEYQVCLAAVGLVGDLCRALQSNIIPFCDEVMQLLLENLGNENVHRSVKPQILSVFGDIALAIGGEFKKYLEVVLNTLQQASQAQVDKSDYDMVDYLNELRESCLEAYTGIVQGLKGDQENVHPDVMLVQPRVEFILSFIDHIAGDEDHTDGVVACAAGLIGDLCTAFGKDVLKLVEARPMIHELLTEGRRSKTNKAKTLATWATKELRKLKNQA
UniProt O95149, whole entry partner: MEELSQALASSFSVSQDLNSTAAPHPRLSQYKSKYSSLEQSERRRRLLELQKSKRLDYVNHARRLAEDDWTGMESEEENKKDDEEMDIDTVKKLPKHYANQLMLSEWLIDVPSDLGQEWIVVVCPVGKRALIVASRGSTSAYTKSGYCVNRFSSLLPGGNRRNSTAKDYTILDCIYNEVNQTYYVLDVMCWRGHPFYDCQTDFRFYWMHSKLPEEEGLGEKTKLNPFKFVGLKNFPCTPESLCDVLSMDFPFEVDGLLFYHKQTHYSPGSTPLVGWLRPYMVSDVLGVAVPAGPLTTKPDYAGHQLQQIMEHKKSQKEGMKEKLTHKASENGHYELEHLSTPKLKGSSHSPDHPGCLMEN

Only a part is listed here, and it is no random draw. Some results for these compounds are left out of this collection, so the calls shown say nothing about other tests. Records with an inconclusive call do not appear. Active and inactive are the calls of the source. Calls follow the shape of the full dose curve.

The target of the assay is Importin subunit beta-1 (Homo sapiens) (UniProt Q14974). In words: qHTS Assay for Inhibitors of Rango (Ran-regulated importin-beta cargo) - Importin beta complex formation.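 Also: 0% = DMSO wells and 100% = buffer wells lacking importin beta; nearly all actives have a fitted effect of over 15% in size.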 As to conditions: Rango CFP/YFP FRET sensor + importin beta, 45 min; at 92.2 µM (top of the series). The text has this: NIH Molecular Libraries Probe Production Centers Network [MLPCN] NIH Chemical Genomics Center [NCGC] MLPCN Grant: R03 MH090808-01A1 Assay Submitter (PI): Petr Kalab NCGC Assay Overview: The small GTPase Ran regulates transport of macromolecules between the nucleus and the cytoplasm (nuclear transport) and has important functions in mitotic spindle assembly, nuclear envelope (NE) formation and nuclear pore complex (NPC) assembly. RanGTP gradient is thought to promote spindle assembly by providing a spatial clue to microtubule nucleation and Aurora A activation. Because the localized release and binding of importin alpha cargo relays this spatial clue to SAFs, inhibitors of the Rango - importin beta complex can then be used in further understanding their role in cell cycle specifically in mitosis progression. […] Activation of Aurora A has been linked to different types of cancer and a number of Aurora kinase inhibitors are being developed as potential canter therapeutics therefore, identified inhibitors of this complex could be developed into potential anti-mitotic probes for cancer treatment. Purified recombinant proteins Rango and importin beta were provided by the assay submitter. The assay used a fluorescence resonance energy transfer (FRET) Rango biosensor that contains the IBB of human snurportin 1 flanked by yellow fluorescent protein (EYFP) at the amino terminus and cerulean CFP10 at the carboxy terminus. […] Inhibitors will therefore be identified based on the ability to interfere with the FRET signal decrease. DMSO treated and no importin beta (buffer only) wells were used as negative and positive controls respectively. FRET readings were obtained at two time points. FRET reading prior to importin beta addition (pre-read) were used flag potential compound interference; FRET reading after importin beta addition (post-read) were used to identify inhibitors using the FRET ratio parameter.
NCGC Assay Protocol Summary: Two and a half uL/well of Rango-buffer solution (50 nM Rango, 1x PBS, 1mM DTT, 0.02% Tween-20, 0.1% BSA final concentrations) was dispensed into 1536-well assay plates (Greiner, solid black medium-binding plates) with Aurora Discovery BioRAPTR Flying Reagent Dispenser (FRD; Beckton-Dickenson). Compound solution (23 nL) was transferred to the assay plate using Kalypsys pin tool equipped with a 1536-pin tool and incubated at room temperature for 5 min followed by a FRET pre-read using the PerkinElmer Envision plate reader. Two and a half uL/well of Importin beta - buffer solution (0.125 microM importin beta, 1x PBS, 1mM DTT, 0.02% Tween-20, 0.1% BSA final concentrations) were then added and incubated at room temperature giving a final reaction volume of 5uL. After 45min FRET post-read was obtained via the Envision plate reader using the same optics and settings as the pre-read (CFP/YFP optimized dual optical module D450/D505; excitation mirror CFP 430/24 nm; and emission filters CFP 486/10 nm and YFP 530/10 nm).
Regarding `O=C(NCC1(N2CCCCC2)CCCCC1)c1cc([N+](=O)[O-])ccc1Cl`, the inhibition of complex formation was inactive: -2.94%.

As for `CN1[C@@H]2CC[C@H]1CC(OC(=O)C(O)(c1ccccc1)c1ccccc1)C2` (some centres undefined), the inhibition of complex formation was inactive: 4.42%.

In the case of `COc1cc(SC)ccc1C(=O)NCC1(N(C)C)CCCCC1`, the inhibition of complex formation is inactive: 1.74%.

`CCN(CC)CC(C)C(C)OC(=O)C(O)(c1ccccc1)c1ccccc1` (centres undefined): the inhibition of complex formation is inactive: 2.64%.

`CC(C)N1C(=O)CC2(CCN(CCOC(=O)C(O)(c3ccccc3)c3ccccc3)CC2)C1=O`: the inhibition of complex formation was inactive: -0.032%.

Consider `Cc1ccc(C(=O)NCC2(N3CCCCC3)CCCCC2)cc1`, for which the inhibition of complex formation is inactive: 1.15%.

In the case of `CN(C)c1ccc(C(=O)NCC2(N(C)C)CCCCC2)cc1`, the inhibition of complex formation is inactive: -0.192%.

Consider `CN(C)C1CCCC1OC(=O)C(O)(c1ccccc1)c1ccccc1` (centres undefined), for which the inhibition of complex formation is inactive: -0.317%.

On to `Cc1ccccc1C(=O)NCC1(N2CCCCC2)CCCCC1`, for which the inhibition of complex formation was inactive: -0.896%.

On to `O=C(NCC1(N2CCCCC2)CCCCC1)c1cc(F)c(F)cc1Cl`, for which the inhibition of complex formation was inactive: 4.46%.

As for `C=CCN1CCN(CCOC(=O)C(O)(c2ccccc2)c2ccccc2)CC1`, the inhibition of complex formation was inactive: -0.642%.

`COc1ccc(C(=O)NCC2(N(C)C)CCCCC2)cc1`: the inhibition of complex formation is inactive: -1.89%.

For `O=C(NCC1(N2CCCCC2)CCCCC1)c1cccc(Br)c1`, the inhibition of complex formation is inactive: 1.48%.

For the compound `CCN1CCCC(OC(=O)C2(O)c3ccccc3C=Cc3ccccc32)C1` (centres undefined), the inhibition of complex formation is inactive: -5.4%.

In the case of `Cc1cc(C(=O)NCC2(N3CCCCC3)CCCCC2)ccc1[N+](=O)[O-]`, the inhibition of complex formation is inactive: -5.45%.

Turning to `CN(C)C1(CNC(=O)c2ccc(Br)cc2)CCCCC1`, the inhibition of complex formation was inactive: 1.6%.

In the case of `COc1cc(C(=O)NCC2(N(C)C)CCCCC2)c([N+](=O)[O-])cc1OC`, the inhibition of complex formation is inactive: -0.0733%.

With `COc1ccc(Cl)cc1C(=O)NCC1(N(C)C)CCCCC1`, the inhibition of complex formation is inactive: -0.0887%.

As to `COc1cccc(C(=O)NCC2(N3CCCCC3)CCCCC2)c1`, the inhibition of complex formation is inactive: -3.5%.

For `O=C(OC1CN2CCC1CC2)C(CO)(c1ccccc1)c1ccccc1` (centres undefined), the inhibition of complex formation is inactive: 2.69%.

Regarding `COc1ccc(Br)c(C(=O)NCC2(N3CCCCC3)CCCCC2)c1`, the inhibition of complex formation was inactive: -7.16%.

In the case of `O=C(OCCN1CCCC1)C(O)(c1ccccc1)c1ccccc1`, the inhibition of complex formation was inactive: -0.492%.

On to `CC(C)Oc1ccc(C(=O)NCC2(N(C)C)CCCCC2)cc1`, for which the inhibition of complex formation is inactive: 5.01%.

Turning to `CN(C)c1cccc(C(=O)NCC2(N(C)C)CCCCC2)c1`, the inhibition of complex formation is inactive: 1.61%.
